# Laboratory results as given in patent publication US20260240847A1, “COMPOUNDS WITH ANTI-TUMOR ACTIVITY AGAINST CANCER CELLS BEARING TYROSINE KINASE INHIBITOR RESISTANT EGFR MUTATIONS” (BOARD OF REGENTS, THE UNIVERSITY OF TEXAS SYSTEM, priority 2019, published 2026).
# Protein sequences, listed by entry. Tags and fused reporters are not part of them. Residues count along the entry.
# UniProt P00533, 25-1210 L718V/L858R: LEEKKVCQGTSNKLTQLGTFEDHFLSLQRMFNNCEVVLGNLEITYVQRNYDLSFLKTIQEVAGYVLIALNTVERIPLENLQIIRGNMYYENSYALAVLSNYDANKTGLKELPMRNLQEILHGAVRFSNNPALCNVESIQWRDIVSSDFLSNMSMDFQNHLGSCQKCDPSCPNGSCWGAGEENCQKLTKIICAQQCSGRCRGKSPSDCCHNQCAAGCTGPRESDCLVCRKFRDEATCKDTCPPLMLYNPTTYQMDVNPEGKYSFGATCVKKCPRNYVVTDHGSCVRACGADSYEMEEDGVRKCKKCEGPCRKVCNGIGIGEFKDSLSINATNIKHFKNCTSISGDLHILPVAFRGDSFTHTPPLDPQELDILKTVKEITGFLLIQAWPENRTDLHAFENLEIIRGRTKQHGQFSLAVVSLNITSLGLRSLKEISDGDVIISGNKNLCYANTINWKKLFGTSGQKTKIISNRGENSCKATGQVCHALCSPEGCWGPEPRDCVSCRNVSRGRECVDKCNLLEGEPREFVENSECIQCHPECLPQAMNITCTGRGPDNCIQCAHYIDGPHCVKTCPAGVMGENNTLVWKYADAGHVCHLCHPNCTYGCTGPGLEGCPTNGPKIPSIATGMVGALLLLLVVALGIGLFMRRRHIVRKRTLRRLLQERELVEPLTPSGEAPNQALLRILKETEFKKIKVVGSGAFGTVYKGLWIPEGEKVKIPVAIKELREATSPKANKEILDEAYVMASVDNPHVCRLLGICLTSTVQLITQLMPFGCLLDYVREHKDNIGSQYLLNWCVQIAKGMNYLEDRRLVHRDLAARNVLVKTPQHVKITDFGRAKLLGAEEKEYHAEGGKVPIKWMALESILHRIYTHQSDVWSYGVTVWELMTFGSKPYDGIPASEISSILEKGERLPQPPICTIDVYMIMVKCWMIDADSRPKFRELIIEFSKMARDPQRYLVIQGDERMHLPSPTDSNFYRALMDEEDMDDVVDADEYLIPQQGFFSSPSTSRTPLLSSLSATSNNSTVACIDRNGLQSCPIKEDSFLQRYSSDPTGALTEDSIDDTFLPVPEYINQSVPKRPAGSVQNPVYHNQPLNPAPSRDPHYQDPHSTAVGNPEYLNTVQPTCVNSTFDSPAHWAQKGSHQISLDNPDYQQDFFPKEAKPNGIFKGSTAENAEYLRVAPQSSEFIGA
# UniProt P00533, 25-1210 G719A/T790M: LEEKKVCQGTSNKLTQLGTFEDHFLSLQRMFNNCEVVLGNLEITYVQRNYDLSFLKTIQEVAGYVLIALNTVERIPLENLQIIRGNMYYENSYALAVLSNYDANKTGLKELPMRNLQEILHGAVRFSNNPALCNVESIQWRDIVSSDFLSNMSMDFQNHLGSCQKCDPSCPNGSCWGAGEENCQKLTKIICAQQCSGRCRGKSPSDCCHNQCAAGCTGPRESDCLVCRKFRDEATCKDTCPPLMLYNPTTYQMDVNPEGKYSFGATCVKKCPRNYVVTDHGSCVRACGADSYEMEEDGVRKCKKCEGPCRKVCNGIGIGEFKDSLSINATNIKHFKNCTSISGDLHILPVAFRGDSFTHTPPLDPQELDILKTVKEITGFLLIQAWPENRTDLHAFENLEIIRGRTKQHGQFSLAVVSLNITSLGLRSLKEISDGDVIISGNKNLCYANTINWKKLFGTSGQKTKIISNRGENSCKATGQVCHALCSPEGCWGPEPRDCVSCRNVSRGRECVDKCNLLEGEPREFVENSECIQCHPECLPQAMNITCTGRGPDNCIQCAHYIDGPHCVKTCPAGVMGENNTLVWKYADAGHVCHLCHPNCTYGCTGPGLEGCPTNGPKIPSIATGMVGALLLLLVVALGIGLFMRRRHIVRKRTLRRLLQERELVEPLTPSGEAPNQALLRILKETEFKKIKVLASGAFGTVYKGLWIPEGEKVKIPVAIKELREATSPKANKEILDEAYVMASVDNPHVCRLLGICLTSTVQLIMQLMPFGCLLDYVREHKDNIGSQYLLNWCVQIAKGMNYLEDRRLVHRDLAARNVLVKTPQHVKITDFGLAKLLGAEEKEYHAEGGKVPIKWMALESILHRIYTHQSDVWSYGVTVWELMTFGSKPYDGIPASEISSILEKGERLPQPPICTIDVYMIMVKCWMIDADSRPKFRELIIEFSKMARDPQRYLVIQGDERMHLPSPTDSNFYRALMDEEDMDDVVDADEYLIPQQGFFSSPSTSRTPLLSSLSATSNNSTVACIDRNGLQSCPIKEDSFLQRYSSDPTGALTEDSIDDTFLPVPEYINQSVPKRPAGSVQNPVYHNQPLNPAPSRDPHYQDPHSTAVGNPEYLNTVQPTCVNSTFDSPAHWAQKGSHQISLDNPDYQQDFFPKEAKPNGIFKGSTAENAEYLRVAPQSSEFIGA
# UniProt P00533, 25-1210 R776H: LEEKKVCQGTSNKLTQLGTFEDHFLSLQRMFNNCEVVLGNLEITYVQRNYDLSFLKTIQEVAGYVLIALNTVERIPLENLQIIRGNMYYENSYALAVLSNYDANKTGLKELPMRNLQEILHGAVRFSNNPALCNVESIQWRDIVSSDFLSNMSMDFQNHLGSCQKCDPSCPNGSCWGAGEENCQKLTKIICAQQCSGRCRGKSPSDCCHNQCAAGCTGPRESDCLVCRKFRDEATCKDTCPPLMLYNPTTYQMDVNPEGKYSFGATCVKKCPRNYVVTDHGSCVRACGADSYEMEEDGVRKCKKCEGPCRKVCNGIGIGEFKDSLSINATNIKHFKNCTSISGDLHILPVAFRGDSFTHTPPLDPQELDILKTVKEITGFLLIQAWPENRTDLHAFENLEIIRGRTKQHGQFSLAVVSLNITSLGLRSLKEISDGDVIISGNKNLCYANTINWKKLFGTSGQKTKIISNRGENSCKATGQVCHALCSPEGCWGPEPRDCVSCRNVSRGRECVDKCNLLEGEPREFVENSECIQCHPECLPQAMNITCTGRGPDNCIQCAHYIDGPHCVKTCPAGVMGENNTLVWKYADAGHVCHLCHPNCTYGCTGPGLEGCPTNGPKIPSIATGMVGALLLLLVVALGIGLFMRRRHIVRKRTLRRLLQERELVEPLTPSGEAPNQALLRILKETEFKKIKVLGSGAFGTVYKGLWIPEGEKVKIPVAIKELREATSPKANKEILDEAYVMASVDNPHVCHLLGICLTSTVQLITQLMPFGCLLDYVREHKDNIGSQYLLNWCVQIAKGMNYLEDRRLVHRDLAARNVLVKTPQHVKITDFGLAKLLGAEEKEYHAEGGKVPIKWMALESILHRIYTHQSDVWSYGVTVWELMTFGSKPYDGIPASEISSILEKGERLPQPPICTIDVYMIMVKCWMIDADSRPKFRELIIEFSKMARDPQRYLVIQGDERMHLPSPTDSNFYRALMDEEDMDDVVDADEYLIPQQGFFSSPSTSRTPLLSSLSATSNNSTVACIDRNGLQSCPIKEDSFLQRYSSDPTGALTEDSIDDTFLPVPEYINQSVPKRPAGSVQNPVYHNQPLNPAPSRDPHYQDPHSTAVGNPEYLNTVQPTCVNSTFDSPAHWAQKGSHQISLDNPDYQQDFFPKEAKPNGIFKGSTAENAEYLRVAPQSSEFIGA
# UniProt P00533, 25-1210 S768I: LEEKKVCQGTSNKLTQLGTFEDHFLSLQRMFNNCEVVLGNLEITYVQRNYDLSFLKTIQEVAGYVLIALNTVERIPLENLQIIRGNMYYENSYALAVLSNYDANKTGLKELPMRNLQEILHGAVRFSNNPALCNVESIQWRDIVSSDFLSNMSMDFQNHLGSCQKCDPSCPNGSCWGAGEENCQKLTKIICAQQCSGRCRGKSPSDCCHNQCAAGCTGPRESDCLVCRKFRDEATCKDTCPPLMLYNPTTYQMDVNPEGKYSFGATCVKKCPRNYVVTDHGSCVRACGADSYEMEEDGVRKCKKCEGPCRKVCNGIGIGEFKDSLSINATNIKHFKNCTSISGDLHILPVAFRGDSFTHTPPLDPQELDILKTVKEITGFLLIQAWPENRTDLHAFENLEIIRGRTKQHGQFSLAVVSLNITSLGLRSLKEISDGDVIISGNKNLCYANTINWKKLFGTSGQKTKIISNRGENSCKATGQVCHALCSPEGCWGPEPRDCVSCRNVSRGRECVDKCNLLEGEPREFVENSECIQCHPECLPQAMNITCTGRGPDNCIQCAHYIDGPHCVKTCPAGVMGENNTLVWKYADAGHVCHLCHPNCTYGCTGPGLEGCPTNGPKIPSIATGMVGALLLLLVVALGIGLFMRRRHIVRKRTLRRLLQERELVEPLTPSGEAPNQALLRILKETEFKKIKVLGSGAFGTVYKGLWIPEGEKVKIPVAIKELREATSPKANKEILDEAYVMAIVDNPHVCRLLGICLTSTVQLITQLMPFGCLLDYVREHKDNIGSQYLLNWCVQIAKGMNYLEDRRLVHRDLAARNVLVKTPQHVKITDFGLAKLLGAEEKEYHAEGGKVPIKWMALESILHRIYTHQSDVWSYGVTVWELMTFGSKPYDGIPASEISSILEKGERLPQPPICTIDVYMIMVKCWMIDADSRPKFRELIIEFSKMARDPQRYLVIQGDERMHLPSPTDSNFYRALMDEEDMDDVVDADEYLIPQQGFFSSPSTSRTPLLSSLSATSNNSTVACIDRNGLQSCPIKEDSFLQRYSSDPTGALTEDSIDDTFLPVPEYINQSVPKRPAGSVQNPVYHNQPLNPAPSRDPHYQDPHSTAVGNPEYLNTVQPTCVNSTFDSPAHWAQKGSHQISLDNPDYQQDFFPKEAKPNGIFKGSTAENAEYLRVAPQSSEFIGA
# UniProt P00533, 25-1210 G724S/T790M: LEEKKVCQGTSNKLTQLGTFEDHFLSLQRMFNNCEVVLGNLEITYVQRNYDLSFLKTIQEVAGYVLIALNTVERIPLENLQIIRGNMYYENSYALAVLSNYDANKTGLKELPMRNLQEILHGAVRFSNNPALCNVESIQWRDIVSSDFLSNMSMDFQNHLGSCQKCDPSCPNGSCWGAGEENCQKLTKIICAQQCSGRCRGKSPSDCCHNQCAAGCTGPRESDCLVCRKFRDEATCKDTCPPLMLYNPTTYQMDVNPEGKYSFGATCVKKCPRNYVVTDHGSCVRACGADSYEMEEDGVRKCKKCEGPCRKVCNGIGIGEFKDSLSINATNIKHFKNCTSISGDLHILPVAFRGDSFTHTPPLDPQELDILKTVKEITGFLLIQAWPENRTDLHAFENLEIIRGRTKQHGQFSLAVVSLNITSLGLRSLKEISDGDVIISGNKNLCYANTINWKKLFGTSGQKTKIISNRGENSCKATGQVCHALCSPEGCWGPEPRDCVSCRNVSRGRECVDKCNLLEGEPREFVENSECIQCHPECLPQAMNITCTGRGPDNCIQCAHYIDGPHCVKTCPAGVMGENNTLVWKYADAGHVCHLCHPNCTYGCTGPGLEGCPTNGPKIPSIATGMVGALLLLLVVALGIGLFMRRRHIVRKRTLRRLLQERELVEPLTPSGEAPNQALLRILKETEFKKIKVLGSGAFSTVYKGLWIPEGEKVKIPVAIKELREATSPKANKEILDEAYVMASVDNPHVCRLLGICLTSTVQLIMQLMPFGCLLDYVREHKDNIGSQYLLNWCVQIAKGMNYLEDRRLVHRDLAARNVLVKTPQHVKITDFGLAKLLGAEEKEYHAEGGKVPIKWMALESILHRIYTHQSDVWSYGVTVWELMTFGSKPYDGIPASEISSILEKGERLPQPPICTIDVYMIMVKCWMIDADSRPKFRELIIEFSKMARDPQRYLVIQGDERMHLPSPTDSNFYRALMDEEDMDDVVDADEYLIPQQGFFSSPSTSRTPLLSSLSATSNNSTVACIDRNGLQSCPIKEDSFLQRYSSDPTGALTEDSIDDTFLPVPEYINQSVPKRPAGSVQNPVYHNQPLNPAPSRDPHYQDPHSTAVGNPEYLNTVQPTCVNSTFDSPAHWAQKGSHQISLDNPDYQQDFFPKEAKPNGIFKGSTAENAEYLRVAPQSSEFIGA
# Tests used:
# Assay in all cases: Ba/F3 cell viability, Cell Titer Glo
# [1] = target: EGFR L858R/L718V (Homo sapiens, UniProt P00533, L718V/L858R); conditions: read-out: IC50 Values; Ba/F3 cells expressing EGFR L858R/L718V, 72 hours
# [2] = target: EGFR G719A T790M (Homo sapiens, UniProt P00533, G719A/T790M); conditions: read-out: IC50 Values; Ba/F3 cells expressing EGFR G719A T790M, 72 hours
# [3] = target: EGFR R776H (Homo sapiens, UniProt P00533, R776H); conditions: read-out: IC50 Values; Ba/F3 cells expressing EGFR R776H, 72 hours
# [4] = target: EGFR S768I (Homo sapiens, UniProt P00533, S768I); conditions: read-out: IC50 Values; Ba/F3 cells expressing EGFR S768I, 72 hours
# [5] = target: EGFR G724S T790M (Homo sapiens, UniProt P00533, G724S/T790M); conditions: read-out: IC50 Values; Ba/F3 cells expressing EGFR G724S T790M, 72 hours
# [6] = target: EGFR L747 K754del insATSPE (Homo sapiens, UniProt P00533, DEL747-749/K754E); conditions: read-out: IC50 Values; Ba/F3 cells expressing EGFR L747 K754del insATSPE, 72 hours
# [7] = target: EGFR L858R T790M V843I (Homo sapiens, UniProt P00533, L858R/T790M/V843I); conditions: read-out: IC50 Values; Ba/F3 cells expressing EGFR L858R T790M V843I, 72 hours
# [8] = target: EGFR T790M (Homo sapiens, UniProt P00533, T790M); conditions: read-out: IC50 Values; Ba/F3 cells expressing EGFR T790M, 72 hours
# [9] = target: EGFR N771dupN G724S (Homo sapiens, UniProt P00533, DUP771-771/G724S); conditions: read-out: IC50 Values; Ba/F3 cells expressing EGFR N771dupN G724S, 72 hours
# [10] = target: EGFR R776C (Homo sapiens, UniProt P00533, R776C); conditions: read-out: IC50 Values; Ba/F3 cells expressing EGFR R776C, 72 hours
# [11] = target: EGFR T725M (Homo sapiens, UniProt P00533, T725M); conditions: read-out: IC50 Values; Ba/F3 cells expressing EGFR T725M, 72 hours
# [12] = target: EGFR L858R T790M/C797S (Homo sapiens, UniProt P00533, C797S/L858R/T790M); conditions: read-out: IC50 Values; Ba/F3 cells expressing EGFR L858R T790M/C797S, 72 hours
# [13] = target: EGFR S720P (Homo sapiens, UniProt P00533, S720P); conditions: read-out: IC50 Values; Ba/F3 cells expressing EGFR S720P, 72 hours
# [14] = target: EGFR V769L (Homo sapiens, UniProt P00533, V769L); conditions: read-out: IC50 Values; Ba/F3 cells expressing EGFR V769L, 72 hours
# [15] = target: EGFR L858R G796S (Homo sapiens, UniProt P00533, G796S/L858R); conditions: read-out: IC50 Values; Ba/F3 cells expressing EGFR L858R G796S, 72 hours
# [16] = target: EGFR L747S (Homo sapiens, UniProt P00533, L747S); conditions: read-out: IC50 Values; Ba/F3 cells expressing EGFR L747S, 72 hours
# [17] = target: EGFR K757R (Homo sapiens, UniProt P00533, K757R); conditions: read-out: IC50 Values; Ba/F3 cells expressing EGFR K757R, 72 hours
# [18] = target: EGFR L718Q (Homo sapiens, UniProt P00533, L718Q); conditions: read-out: IC50 Values; Ba/F3 cells expressing EGFR L718Q, 72 hours
# [19] = target: EGFR L858R G724S (Homo sapiens, UniProt P00533, G724S/L858R); conditions: read-out: IC50 Values; Ba/F3 cells expressing EGFR L858R G724S, 72 hours
# [20] = target: EGFR K754E (Homo sapiens, UniProt P00533, K754E); conditions: read-out: IC50 Values; Ba/F3 cells expressing EGFR K754E, 72 hours
# [21] = target: EGFR L747P (Homo sapiens, UniProt P00533, L747P); conditions: read-out: IC50 Values; Ba/F3 cells expressing EGFR L747P, 72 hours
compound,measurement,setting,value
Cc1cc(C(=O)Nc2nc3cccc(Cl)c3n2[C@@H]2CCCCN(C(=O)/C=C/CN(C)C)C2)ccn1,IC50,[1],335 nM
same,IC50,[2],34.4 nM
same,IC50,[3],46.7 nM
same,IC50,[4],514 nM
same,IC50,[5],242 nM
same,IC50,[6],1.55 nM
same,IC50,[7],32.4 nM
same,IC50,[8],151 nM
same,IC50,[9],439 nM
same,IC50,[10],369 nM
same,IC50,[11],58.9 nM
same,IC50,[12],3.43 µM
same,IC50,[13],22.6 nM
same,IC50,[14],254 nM
same,IC50,[15],856 nM
same,IC50,[16],81.7 nM
same,IC50,[17],624 nM
same,IC50,[18],1610 nM
same,IC50,[19],248 nM
same,IC50,[20],61.6 nM
same,IC50,[21],288 nM
